Experiment [1] deals with αE-catenin homodimer (mouse, full length, His(6x) tagged) (mouse) (UniProt P26231). Kind of experiment: ultrafast force-clamp spectroscopy (optical tweezers); single α-catenin homodimer (αE-catenin 4 μg/ml, no β-catenin) bound non-specifically to a nitrocellulose-coated silica bead on the coverslip; biotinylated rhodamine-phalloidin F-actin (1 nM) suspended between two trapped neutravidin …; constant force up to ± 17 pN, one dumbbell; 20 mM MOPS pH 7.2, 50 mM KCl, 1 mM MgCl2, 0.1 mM EGTA, 20 mM DTT.

Experiment [2] deals with α-β-catenin heterodimer (monomeric His(6x) tagged mouse αE-catenin on GST-tagged human β-catenin) (mouse | human) (UniProt P26231). Kind of experiment: ultrafast force-clamp spectroscopy (optical tweezers); single α-β-catenin heterodimer: β-catenin 80 μg/ml on the nitrocellulose-coated silica bead, then αE-catenin 4 μg/ml for 5 min; F-actin dumbbell under constant force, one dumbbell; 20 mM MOPS pH 7.2, 50 mM KCl, 1 mM MgCl2, 0.1 mM EGTA, 20 mM DTT.

In experiment [1], “F-actin (biotinylated, rhodamine-phalloidin labelled actin filament) (from UniProt P68135 1-377) (natural protein; other documents disagree on this pair)” gave a bond lifetime at 8.1 pN of 145 ms, a bond lifetime at 11.5 pN of 9.5 ms, a bond lifetime at 13.8 pN of 61 ms and a bond lifetime at −4.3 pN of 1.25 ms. Further, in experiment [1], the bond lifetime at −7.7 pN is 20.5 ms and the bond lifetime at −8.6 pN came out at 9 ms.

Turning to “F-actin (biotinylated, rhodamine-phalloidin labelled actin filament) (from UniProt P68135 1-377) (natural protein)”, in experiment [2], the bond lifetime at F > 7 pN was below 1 ms; the unloaded bond lifetime τ0+ (Bell slip-bond fit, positive force) amounted to 6.1 ms; the unloaded bond lifetime τ0- (Bell slip-bond fit, negative force) worked out at 16 ms.

(Values after PMC8894357 (2022).)
